Experimental data reported in BindingDB's records for 31609608.
Only a part of the results on these compounds is given; other tests are left out.

Protein sequences, listed by entry. Tags and fused reporters are not part of them.
UniProt P34972, whole entry: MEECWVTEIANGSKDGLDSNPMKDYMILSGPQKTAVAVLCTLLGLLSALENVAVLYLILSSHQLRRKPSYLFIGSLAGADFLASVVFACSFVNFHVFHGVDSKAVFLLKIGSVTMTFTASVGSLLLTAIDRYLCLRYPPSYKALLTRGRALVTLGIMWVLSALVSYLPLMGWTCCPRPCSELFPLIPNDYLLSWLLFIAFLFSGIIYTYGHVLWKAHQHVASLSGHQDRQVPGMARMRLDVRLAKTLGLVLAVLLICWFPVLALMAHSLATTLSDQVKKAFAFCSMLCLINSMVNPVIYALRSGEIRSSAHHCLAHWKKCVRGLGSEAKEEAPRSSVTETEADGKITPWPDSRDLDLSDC

Molecular target: Cannabinoid receptor 2 (Homo sapiens, UniProt P34972)

Work on `CCOc1ccc(Cc2nc3cc(C(=O)N(CC)CC)ccc3n2CCNc2c3c(nc4ccccc24)CCCC3)cc1` yielded a Ki of 39 nM.
